This is an account of results in US11505536B2, “Dihydroorotate dehydrogenase inhibitors” (Janssen Biotech, Inc., priority 2019, dated 2022).

Sequences of proteins named here, by UniProt entry; tags and fusion partners are left off.
UniProt Q02127, whole entry: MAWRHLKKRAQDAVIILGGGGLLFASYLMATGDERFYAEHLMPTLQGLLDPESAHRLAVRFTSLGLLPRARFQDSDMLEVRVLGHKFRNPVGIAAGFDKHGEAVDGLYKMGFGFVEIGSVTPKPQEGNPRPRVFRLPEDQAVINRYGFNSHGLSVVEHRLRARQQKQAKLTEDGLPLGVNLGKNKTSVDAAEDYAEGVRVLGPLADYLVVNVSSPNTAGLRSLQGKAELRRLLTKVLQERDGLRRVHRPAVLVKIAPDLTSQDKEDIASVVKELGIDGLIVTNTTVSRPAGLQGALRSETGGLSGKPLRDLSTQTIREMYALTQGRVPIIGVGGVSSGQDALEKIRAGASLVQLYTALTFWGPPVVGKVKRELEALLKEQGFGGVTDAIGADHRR

Bounds are passed on as bounds.

Test [1] deals with human DHODH (Homo sapiens (Human), UniProt Q02127). Kind of test: DHODH Enzymatic Assay. Type of test: biochemical. To be noted: read-out: hDHODH IC50; purified human DHODH, DCIP absorbance, end-point mode. On the procedure:
The following assay is referred to herein as the “DHODH Enzymatic Assay.” To detect DHODH enzyme activities, dichloroindophenol (DCIP) is added as the final electron acceptor in the assay. DCIP can accept electrons from the reduced coenzyme Q generated in the assay, or from dihydroorotate (DHO) via FMN by binding presumably to the ubiquinone pocket. DCIP solutions are blue, with an intense absorbance around 600 nm, but becomes colorless upon reduction (J. Biol. Chem. (1986) 261, 11386). The assay buffer contained […], pH 7.5, 150 mM NaCl, 0.5 mM EDTA, and 0.1% Triton X-100 in MilliQ water. Substrate consisting of 20 mM DHO, 5 mM CoQ6, and 1 mM DCIP in assay buffer, initiates the reaction. The assay is run in end-point mode by quenching the reaction with the potent DHODH inhibitor brequinar. Absorbance measurements were obtained using the BMG Phera Star plate-reading spectrophotomer. Purified human DHODH was purchased from Proteros (cat. No. PR-0044). Chemicals were purchased from Sigma-Aldrich, Teknova, and Avanti Polar Lipids. Liquid handling was performed using Labcyte Echo and Formulatrix Tempest.

For test [2], the system named is MOLM-13 cells (human acute myeloid leukemia cells). Kind of test: MOLM-13 Cellular Assay. Conditions: read-out: MOLM-13 IC50, 72 hours exposure, cell viability by CellTiter-Glo. On the procedure:
The following assay is referred to herein as the “MOLM-13 Cellular Assay.” MOLM-13 cells (human acute myeloid leukemia cells) were obtained from DSMZ and were maintained in RPMI 1640+Glutamax+25 mM HEPES (Invitrogen, catalog number 72400) supplemented with 10% heat inactivated fetal bovine serum (FBS; Invitrogen, catalog number 16140). The day prior to assay set-up, cells were pelleted, resuspended in fresh media, counted, and cells were plated at 0.4×10^6 cell/mL in a T150 flask. On the day of the assay, cells were pelleted, resuspend in fresh media, counted and seeded at 5,000 cells/well in white opaque 96-well tissue culture treated microplates (Perkin Elmer, catalog number 6005680). Cells were exposed to different concentrations of test compounds at 37° C., 5% CO2 for 72 hours immediately after seeding. Cell viability was acquired on a Perkin Elmer Envision 2104 multilabel reader using the CellTiter-Glo assay (Promega) according to the manufacturer's instructions.
On the technique in general: Cellular ATP, detected with luciferase, serves as a proxy for viable cell number.

What is called IC50 is the concentration that gives 50% inhibition.

Regarding `CCn1c(CO)nn(-c2cc3c(C(C)C)cn(-c4cc(C)cnc4Cl)c(=O)c3cc2F)c1=O` [Example 98, 2-(2-Chloro-5-methylpyridin-3-yl)-6-(4-ethyl-3-(hydroxymethyl)-5-oxo-4,5-dihydro-1H-1,2,4-triazol-1-yl)-7-fluoro-4-isopropylisoquinolin-1(2H)-one], the IC50 was 14.8 nM in test [1] and > 100 nM in test [2].
